Literature values as cited in patent US20180214582A1, “METHOD FOR DIAGNOSING CARCINOMAS USING IRGD AND MAGENTIC RESONANCE TOMOGRAPHY (MRT)” (Albrecht Piiper, priority 2015, published 2018).

What was measured:
macrophages = conditions: Waralee Watcharin, 2015, FIG. 7; cited from earlier work
[1] = tested on: HCCs in the livers with HCC; conditions: injection of nanoparticles; Waralee Watcharin, 2015, FIG. 4; cited from earlier work

## Gd-DTPA-containing human serum albumin (HSA) nanoparticles: Prior-art contrast agent: Gd-DTPA-containing human serum albumin nanoparticles (Watcharin 2015)
macrophages
  absorption by macrophages: absorbed very rapidly by the macrophages
[1]
  contrasting of the HCCs in the livers with HCC in MRI: negative contrasting
